Target: Histone deacetylase 4 (Homo sapiens, UniProt P56524)
Assay: Inhibition of recombinant human HDAC4 using Acetyl-Lys(trifluoroacetyl)-AMC as substrate by fluorescence assay
Format: toxicity

Protein sequences, listed by entry. Tags and fused reporters are not part of them. Lines headed by an entry give the natural chain unless they say otherwise; changes in a name come on top.
UniProt P56524: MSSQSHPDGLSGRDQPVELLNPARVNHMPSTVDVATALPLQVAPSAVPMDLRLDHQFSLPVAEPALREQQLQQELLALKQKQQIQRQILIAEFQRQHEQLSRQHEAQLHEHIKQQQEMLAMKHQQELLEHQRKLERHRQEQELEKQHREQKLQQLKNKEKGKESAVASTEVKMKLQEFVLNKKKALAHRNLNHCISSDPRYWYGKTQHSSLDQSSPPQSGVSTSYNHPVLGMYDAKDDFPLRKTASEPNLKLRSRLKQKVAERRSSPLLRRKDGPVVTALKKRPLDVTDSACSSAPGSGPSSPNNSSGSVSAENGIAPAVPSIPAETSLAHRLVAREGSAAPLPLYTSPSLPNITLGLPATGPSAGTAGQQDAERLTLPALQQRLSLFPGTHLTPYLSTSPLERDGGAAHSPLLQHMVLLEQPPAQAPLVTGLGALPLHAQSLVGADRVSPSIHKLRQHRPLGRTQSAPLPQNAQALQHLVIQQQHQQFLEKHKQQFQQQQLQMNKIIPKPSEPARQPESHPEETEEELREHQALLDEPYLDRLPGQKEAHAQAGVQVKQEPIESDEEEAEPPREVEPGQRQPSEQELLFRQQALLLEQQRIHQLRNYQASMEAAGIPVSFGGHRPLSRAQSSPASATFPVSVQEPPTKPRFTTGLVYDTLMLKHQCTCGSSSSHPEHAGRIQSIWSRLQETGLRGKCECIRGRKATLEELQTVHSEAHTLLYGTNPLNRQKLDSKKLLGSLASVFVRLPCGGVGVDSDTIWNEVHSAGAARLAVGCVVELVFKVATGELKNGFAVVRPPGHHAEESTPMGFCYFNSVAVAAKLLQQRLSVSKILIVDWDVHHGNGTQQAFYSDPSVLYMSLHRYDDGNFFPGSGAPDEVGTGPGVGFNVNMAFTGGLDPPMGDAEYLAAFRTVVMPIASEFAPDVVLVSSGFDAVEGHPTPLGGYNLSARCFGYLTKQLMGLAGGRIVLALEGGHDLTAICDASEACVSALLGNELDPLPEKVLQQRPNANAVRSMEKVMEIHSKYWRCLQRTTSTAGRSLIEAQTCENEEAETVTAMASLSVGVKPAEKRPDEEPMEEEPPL

## CN1CCc2c(c3ccccc3n2Cc2ccc(C(=O)NO)cc2)C1.O=C(O)C(F)(F)F
  IC50: > 30 µM
